## Binding of CDR-mutated scFvs to a peptide of the spike HR2 region

Data: MIT Lincoln Laboratory AlphaSeq set, Engelhart et al. 2022, doi:10.1038/s41597-022-01779-4, as distributed in FLAb.

Target: peptide PDVDLGDISGINAS, taken from heptad repeat 2 (HR2) of SARS-CoV-2 spike.

Parent scFv Ab-14: VH joined to VL by three GGGGS repeats. Changes lie in the heavy chain CDRs alone.
VH: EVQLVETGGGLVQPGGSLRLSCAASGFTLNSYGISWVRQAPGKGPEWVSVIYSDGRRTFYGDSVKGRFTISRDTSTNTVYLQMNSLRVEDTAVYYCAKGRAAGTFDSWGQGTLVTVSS
VL: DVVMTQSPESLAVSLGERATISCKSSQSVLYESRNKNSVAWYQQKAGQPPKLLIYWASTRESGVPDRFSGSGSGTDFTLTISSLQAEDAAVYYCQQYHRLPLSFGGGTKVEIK

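The starting antibody came from a phage panning campaign against this peptide. Library AAYL49 holds single substitutions and randomly drawn double and triple substitutions in the CDRs. Affinity was read by AlphaSeq, a pooled yeast mating assay with surface-displayed partners. Pairs that bind mate more often; barcode pairs of the diploids are counted by sequencing. A regression on co-assayed BCL2-family reference pairs converts the normalised counts of each replicate to an apparent Kd. The assay was run in three technical replicates.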

Variants are written as CDR1, CDR2 and CDR3 of the heavy chain (limits as in the source). Parent: GFTLNSYGIS, VIYSDGRRTFYGDSVK, GRAAGTFDS. Values are log10 of the apparent Kd in nM; lower means stronger binding. "nd" marks a missing value. The strain was present, yet no cells mated with the target were sequenced in that replicate, which points to weak or no binding.

| CDR-H1 | CDR-H2 | CDR-H3 | replicates, log10 nM | empty controls |
|---|---|---|---|---|
| MFTLNSYGIS | VIYSDGRRTFYGDSEK | GRFAGTFDS | nd 5.24 nd | 3 of 9 (3.84) |
| GFTLNSYGIS | VIFSDGRRTFYGDSVK | GNAAGTFDL | 2.22 2.08 2.19 | 3 of 9 (5.09) |
| GFTLNSYGCS | VIYSDGRRTFYGDSVK | YRAAGTNDS | 4.15 nd nd | 1 of 9 (3.65) |
| GRTLNSYGIS | VIYSDGRRTFYGDSVK | GRAEGWFDS | nd nd nd | 1 of 9 (4.70) |
| GVTLNSYGIR | VIFSDGRRTFYGDSVK | GRAAGTFDS | nd nd nd | 3 of 9 (4.36) |
| GFTLNSYGIS | VIYSDGRRTFYGDSVK | GHAAGTFDA | 0.69 1.01 1.02 | 1 of 9 (5.70) |
| GFTLYSYAIS | VIYSDGRRTFYGDSGK | GRAAGTFDS | nd nd nd | 2 of 9 (3.94) |
| GSTLNSYGIS | VIYSDGRRTFYGCSVK | GRAAGTIDS | nd 3.43 nd | 0 of 9 |
| GFILNSYGCS | VIYSDYRRTFYGDSVK | GRAAGTFDS | nd nd nd | 0 of 9 |
| KFTLNSYGIS | VIYSDGERTFYGDSVK | GRAAGTFDC | 0.02 0.40 0.20 | 1 of 9 (4.19) |
| GFTLNSYGIS | VIKSDGRRGFYGDSVK | CRAAGTFDS | nd nd nd | 3 of 9 (4.83) |
| GFTLNSYGIS | VIYSDGRRTFYVDSVK | GRNAGTFDS | 1.34 1.08 1.35 | 0 of 9 |
| GFTLNSYGIS | VIYQDGNDTFYGDSVK | GRAAGTFDS | nd nd nd | 1 of 9 (3.27) |
| GFTLNSYGIY | VIYPDGRRTKYGDSVK | GRAAGTFDS | 3.94 nd 5.47 | 3 of 9 (3.70) |
| GFTLNSYGIS | VIYSDGRTTFYGDSVH | GRAAGTFDS | 3.24 nd 3.21 | 0 of 9 |
| GFTLNSYGIS | VVISDGRRTFYGDIVK | GRAAGTFDS | nd nd nd | 0 of 9 |
| GFTQNSYGIN | CIYSDGRRTFYGDSVK | GRAAGTFDS | nd 3.96 nd | 0 of 9 |
| GFTLNSYGIS | VIYSDGRATPYGDEVK | GRAAGTFDS | nd 3.63 nd | 1 of 9 (4.99) |
| GFTLNSEGIS | VIYSDGRRTFYGDSVK | GDAAGGFDS | nd nd nd | 0 of 9 |
| GFTLNSYIIS | VIYSDGRRTFYGDTVI | GRAAGTFDS | 4.78 nd nd | 3 of 9 (3.44) |
| GQTLNSYGES | VIYSDGRRTFYGDSVK | LRAAGTFDS | nd 3.09 nd | 1 of 9 (4.83) |
| GFTLKSYGIS | VIYSDGRRTFYGDSVK | GRAAGTFDS | 0.80 0.79 1.24 | 0 of 9 |
| GFTLNSYGIS | VIYSDGRRTFYGISVF | GRAAGTFDS | nd nd nd | 0 of 9 |
| GFTLNSYGHS | VIYSDGRRTFYGDSVK | GRARGEFDS | nd nd nd | 0 of 9 |
| GFTLTSYDIS | VIYSDGRRTFYGDSVK | GRAAGTFDS | nd nd nd | 2 of 9 (3.88) |
| GFTLWSYGIS | VWYSDGRRTSYGDSVK | GRAAGTFDS | nd nd nd | 3 of 9 (3.78) |
| GFTLNSYGMS | VIYSDGRRTFYGDSHK | GVAAGTFDS | nd nd nd | 0 of 9 |
| GFTLNSYGFS | VLYSDGRRTFYGDTVK | GRAAGTFDS | nd nd nd | 0 of 9 |
| GFTLNSYGIS | NYYSDGRRHFYGDSVK | GRAAGTFDS | nd nd nd | 0 of 9 |
| GQTLNSYGIS | VIYSDGSRTAYGDSVK | GRAAGTFDS | 0.38 0.70 0.80 | 0 of 9 |
| GFTLNSYGIS | VIYSDIRRTFYWDSVH | GRAAGTFDS | nd 4.19 nd | 2 of 9 (3.29) |
| GFTLNSYYIS | VIYSDGRRTFYRDSVK | GRAAGTFPS | 4.32 nd 4.68 | 1 of 9 (3.15) |
| GFTLNGYGIS | VIYSDGRSTFYGPSVK | GRAAGTFDS | nd 4.31 nd | 4 of 9 (4.85) |
| GFTLNSYGIS | VIYSDGRRTFMGDSVK | GRAAGCFDS | nd nd nd | 2 of 9 (4.11) |
| GFTLNSYGIS | VMYFDGRRTFYGDSVK | GRAAGTFVS | nd nd nd | 0 of 9 |
| GFTLNFYGIS | VIYSDGRTTFYGDSIK | GRAAGTFDS | nd nd nd | 1 of 9 (4.67) |
| GFTLNSYIIS | VIYSDGRRTFYGDSVK | GVAAGTFDS | nd nd nd | 0 of 9 |
| GFWLNSYGIS | VIYSDGRRTDYGDSVP | GRAAGTFDS | nd nd nd | 4 of 9 (3.72) |
| GFTLNSYGIS | VINSDGRTTFYGDSVK | GCAAGTFDS | 4.07 nd nd | 2 of 9 (3.52) |

A selection of 2 entries from above:

CDR-H1	CDR-H2	CDR-H3	replicates, log10 nM	empty controls
MFTLNSYGIS	VIYSDGRRTFYGDSEK	GRFAGTFDS	nd 5.24 nd	3 of 9 (3.84)
GFTLNSYGHS	VIYSDGRRTFYGDSVK	GRARGEFDS	nd nd nd	0 of 9

Three control strains display no target. For library AAYL49, 15% of the pairings with them gave a signal, with a median of 4.06 and one signal in twenty below 2.83, so weak values seen in few replicates may be background. The control count says in how many pairings with the empty strains this scFv gave a signal, with their mean in brackets. For reference, the parent read 0.65 as the reference entry and 4.11 (one replicate of three) as a member of this library.